Measured values from patent US20200317660A1, “Quinazolinone Compound and Application Thereof” (LUOXIN PHARMACEUTICAL (SHANGHAI) CO., LTD., priority 2017, published 2020).

Chains of the proteins cited; added tags and fusions are not shown. Lines headed by an entry give the natural chain unless they say otherwise; changes in a name come on top.
UniProt P42336, whole entry: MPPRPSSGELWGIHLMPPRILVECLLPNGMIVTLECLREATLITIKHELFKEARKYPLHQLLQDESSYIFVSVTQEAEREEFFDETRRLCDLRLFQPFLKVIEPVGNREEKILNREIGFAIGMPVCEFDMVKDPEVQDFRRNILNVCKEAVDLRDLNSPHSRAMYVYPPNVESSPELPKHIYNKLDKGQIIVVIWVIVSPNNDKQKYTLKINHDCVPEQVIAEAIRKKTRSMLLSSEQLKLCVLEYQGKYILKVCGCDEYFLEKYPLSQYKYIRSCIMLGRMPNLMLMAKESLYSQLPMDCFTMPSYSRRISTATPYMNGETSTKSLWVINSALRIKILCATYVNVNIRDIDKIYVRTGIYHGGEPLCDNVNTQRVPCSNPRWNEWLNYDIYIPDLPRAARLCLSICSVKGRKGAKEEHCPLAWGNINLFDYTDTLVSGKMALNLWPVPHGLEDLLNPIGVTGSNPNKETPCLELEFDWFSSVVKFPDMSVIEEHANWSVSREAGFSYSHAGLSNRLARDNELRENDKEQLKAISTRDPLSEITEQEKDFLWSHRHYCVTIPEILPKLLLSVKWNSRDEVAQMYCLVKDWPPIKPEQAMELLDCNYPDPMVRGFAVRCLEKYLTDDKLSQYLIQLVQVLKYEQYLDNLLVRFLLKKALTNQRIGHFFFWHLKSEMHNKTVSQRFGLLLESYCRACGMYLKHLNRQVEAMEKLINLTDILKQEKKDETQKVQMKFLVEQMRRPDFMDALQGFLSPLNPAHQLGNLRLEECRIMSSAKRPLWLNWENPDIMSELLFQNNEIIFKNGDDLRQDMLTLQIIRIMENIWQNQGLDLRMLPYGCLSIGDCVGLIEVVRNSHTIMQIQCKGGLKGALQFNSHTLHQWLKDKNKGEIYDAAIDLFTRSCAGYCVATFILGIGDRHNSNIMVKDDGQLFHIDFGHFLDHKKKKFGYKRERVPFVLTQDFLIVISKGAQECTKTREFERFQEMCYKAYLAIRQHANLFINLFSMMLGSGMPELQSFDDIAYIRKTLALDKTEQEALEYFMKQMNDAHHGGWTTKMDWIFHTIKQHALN
UniProt P42338, whole entry: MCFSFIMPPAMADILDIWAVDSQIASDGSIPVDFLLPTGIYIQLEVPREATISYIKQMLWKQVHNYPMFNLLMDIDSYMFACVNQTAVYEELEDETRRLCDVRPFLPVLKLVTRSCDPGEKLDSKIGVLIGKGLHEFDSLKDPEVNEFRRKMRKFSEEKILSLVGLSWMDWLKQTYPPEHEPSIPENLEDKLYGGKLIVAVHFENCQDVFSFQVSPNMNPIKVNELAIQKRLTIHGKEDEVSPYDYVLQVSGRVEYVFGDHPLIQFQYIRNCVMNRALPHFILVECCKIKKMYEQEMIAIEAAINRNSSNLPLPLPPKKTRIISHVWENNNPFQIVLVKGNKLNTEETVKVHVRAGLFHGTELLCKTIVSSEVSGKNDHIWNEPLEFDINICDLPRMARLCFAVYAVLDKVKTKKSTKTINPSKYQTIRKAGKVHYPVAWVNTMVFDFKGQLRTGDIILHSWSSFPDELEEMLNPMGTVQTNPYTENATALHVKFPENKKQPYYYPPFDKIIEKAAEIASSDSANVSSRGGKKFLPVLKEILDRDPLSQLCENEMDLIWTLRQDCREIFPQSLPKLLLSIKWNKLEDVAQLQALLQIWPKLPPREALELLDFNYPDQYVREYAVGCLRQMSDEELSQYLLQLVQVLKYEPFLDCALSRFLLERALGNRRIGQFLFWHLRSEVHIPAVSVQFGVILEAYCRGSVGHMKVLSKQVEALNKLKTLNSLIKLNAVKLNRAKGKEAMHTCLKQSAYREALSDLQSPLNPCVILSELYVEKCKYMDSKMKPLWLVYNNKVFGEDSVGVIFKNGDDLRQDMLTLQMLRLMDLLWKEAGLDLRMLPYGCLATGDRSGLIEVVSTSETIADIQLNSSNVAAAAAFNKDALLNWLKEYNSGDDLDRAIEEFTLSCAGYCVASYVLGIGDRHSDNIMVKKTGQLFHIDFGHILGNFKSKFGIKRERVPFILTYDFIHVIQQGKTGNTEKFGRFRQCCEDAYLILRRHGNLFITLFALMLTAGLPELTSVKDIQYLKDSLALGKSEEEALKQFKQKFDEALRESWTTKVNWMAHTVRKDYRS
UniProt O00329, whole entry: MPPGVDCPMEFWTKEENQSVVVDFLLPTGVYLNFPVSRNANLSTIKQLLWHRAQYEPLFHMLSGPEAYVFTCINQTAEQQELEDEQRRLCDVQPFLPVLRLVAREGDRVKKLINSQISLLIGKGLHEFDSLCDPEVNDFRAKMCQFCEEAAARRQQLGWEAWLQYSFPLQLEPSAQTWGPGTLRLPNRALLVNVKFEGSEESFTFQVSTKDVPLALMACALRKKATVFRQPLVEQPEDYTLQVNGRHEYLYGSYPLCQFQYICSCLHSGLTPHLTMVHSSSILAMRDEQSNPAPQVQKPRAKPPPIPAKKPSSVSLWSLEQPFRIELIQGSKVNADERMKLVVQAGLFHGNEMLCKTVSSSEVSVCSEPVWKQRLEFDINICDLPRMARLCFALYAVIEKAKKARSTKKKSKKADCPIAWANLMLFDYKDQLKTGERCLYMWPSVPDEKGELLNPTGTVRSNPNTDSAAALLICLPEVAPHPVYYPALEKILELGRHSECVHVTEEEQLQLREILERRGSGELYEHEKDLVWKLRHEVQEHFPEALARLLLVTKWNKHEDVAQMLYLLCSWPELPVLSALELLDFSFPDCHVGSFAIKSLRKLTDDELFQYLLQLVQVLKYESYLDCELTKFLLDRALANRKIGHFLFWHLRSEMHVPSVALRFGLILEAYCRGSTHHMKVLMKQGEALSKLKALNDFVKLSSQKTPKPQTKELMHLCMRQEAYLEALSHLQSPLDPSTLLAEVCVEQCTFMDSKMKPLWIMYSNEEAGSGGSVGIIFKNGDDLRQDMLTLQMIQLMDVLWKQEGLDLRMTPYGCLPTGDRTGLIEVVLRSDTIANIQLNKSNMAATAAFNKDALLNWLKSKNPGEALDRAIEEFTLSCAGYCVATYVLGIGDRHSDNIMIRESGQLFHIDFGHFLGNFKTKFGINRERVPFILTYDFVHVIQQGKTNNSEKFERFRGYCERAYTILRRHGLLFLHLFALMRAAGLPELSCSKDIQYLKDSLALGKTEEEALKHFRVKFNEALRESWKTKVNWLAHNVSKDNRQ
UniProt P48736, whole entry: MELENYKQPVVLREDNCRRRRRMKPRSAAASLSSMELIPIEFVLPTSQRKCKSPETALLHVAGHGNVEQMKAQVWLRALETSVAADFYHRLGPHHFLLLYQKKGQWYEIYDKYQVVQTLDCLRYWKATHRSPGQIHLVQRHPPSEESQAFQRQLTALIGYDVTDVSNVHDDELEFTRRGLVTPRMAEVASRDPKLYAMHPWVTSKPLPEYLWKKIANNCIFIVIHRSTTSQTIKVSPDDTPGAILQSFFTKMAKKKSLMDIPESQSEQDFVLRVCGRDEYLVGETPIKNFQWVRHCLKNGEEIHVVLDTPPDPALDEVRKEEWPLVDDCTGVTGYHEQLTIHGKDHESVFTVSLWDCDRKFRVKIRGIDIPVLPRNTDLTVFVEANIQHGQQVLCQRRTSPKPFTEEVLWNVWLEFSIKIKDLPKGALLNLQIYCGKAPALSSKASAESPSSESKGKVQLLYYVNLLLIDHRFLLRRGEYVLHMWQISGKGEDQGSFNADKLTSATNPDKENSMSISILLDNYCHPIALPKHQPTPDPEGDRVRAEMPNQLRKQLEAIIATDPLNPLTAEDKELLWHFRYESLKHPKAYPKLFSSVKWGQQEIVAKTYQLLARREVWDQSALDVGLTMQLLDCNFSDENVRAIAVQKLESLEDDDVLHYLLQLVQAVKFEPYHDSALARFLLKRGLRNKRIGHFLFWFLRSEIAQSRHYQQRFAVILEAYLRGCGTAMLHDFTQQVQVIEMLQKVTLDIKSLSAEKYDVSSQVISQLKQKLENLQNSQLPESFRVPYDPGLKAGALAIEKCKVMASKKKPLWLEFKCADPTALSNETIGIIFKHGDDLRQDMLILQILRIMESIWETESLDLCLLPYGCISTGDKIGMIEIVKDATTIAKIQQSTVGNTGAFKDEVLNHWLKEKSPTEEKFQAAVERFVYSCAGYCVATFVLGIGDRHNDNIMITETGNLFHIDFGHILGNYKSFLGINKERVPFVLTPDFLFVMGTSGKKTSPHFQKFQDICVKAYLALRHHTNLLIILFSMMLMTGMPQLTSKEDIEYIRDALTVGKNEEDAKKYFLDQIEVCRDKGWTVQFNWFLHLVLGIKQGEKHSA
UniProt P27986, whole entry partner: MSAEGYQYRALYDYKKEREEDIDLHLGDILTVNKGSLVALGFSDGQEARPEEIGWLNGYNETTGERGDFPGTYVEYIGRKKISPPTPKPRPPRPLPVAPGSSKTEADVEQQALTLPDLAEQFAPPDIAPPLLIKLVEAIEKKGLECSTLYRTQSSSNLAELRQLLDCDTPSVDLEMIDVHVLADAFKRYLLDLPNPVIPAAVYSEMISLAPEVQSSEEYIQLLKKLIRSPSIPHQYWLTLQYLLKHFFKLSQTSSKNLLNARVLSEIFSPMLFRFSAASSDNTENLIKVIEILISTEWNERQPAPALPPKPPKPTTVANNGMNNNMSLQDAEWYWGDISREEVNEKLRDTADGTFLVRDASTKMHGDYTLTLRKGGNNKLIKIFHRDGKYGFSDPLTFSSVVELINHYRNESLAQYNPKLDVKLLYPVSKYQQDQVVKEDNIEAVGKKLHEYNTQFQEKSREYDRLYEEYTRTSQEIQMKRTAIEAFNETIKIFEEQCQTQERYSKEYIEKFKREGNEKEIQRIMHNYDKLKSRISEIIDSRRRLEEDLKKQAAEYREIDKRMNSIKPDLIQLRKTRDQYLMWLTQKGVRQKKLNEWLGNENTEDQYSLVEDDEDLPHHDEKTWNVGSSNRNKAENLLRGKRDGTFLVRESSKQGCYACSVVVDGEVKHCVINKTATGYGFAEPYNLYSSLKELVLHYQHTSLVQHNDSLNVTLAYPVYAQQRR

Experiments:
PI3Kα = PI3Kα (Homo sapiens, UniProt P42336); test: In vitro test of enzyme activity (ADP-Glo lipokinase), PI3K alpha; settings: read-out: PI3Kα IC50, 40 μM ATP, 50 μM PIP2:3PS, 120 min
PI3Kβ = PI3Kβ (Homo sapiens, UniProt P42338); test: In vitro test of enzyme activity (ADP-Glo lipokinase), PI3K beta; settings: read-out: PI3Kβ IC50, 40 μM ATP, 50 μM PIP2:3PS, 120 min
PI3Kδ = PI3Kδ (Homo sapiens, UniProt O00329); test: In vitro test of enzyme activity (ADP-Glo lipokinase), PI3K delta; settings: read-out: PI3Kδ IC50, 40 μM ATP, 50 μM PIP2:3PS, 120 min
PI3Kγ = PI3Kγ (Homo sapiens, UniProt P48736); test: In vitro test of enzyme activity (ADP-Glo lipokinase), PI3K gamma; settings: read-out: PI3Kγ IC50, 25 μM ATP, 50 μM PIP2:3PS, 120 min
[1] = system: phosphorylation of PI3K downstream protein Akt in MCF7 cells; test: In vitro test of cells activity: ELISA of Akt phosphorylation in MCF7 cells; settings: read-out: MCF7 Cell IC50, 2 h compound, insulin 10 μg/mL stimulation, pAkt ELISA
[2] = In vivo DMPK study in mice after a single administration; design: species or system female Balb/c mice; settings: for Cmax / Oral DNAUC (area under the dose normalization curve): oral, 10 mpk; for F % (oral bioavailability): oral 10 mpk vs intravenous 1 mg/kg
[3] = system: human breast cancer BT-474 cells; test: Subcutaneous xenograft tumor model of human breast cancer BT-474 cells; settings: BT-474 xenograft, 30 mpk
[4] = system: human ovarian cancer SK-OV-3 cells; test: Subcutaneous xenograft tumor model of human ovarian cancer SK-OV-3 cells; settings: SK-OV-3 xenograft, 30 mpk

SMILES	IC50 (PI3Kα)	IC50 (PI3Kβ)	IC50 (PI3Kδ)	IC50 (PI3Kγ)	IC50 [1]	Cmax [2]	Oral DNAUC (area under the dose normalization curve) [2]	Cmax ([2]; 10 mg/kg)	Oral DNAUC (area under the dose normalization curve) ([2]; 10 mg/kg)	Cl (clearance rate) ([2]; intravenous 1 mg/kg)	Vd (apparent volume of distribution) ([2]; intravenous 1 mg/kg)	F % (oral bioavailability) [2]	Intravenous injection T1/2 ([2]; intravenous 1 mg/kg)	TGI % [3]	TGI % [4]
COc1ncc(-c2ccc3ncn(CCCC(=O)NC(C)C)c(=O)c3c2)cc1NS(=O)(=O)c1ccc(F)cc1Cl	0.00149 µM	0.112 µM	0.00355 µM	0.0118 µM	0.0131 µM										
Cc1nc(C)c(S(=O)(=O)Nc2cc(-c3ccc4ncn([C@H]5C[C@@H](C(=O)N6CCCC6)C5)c(=O)c4c3)cnc2C)s1	0.00281 µM	0.325 µM	0.00135 µM	0.0702 µM	0.116 µM										
CNC(=O)C(C)Cn1cnc2ccc(-c3cnc(OC)c(NS(=O)(=O)c4cccc(C)c4Cl)c3)cc2c1=O (single isomer, unassigned)	0.0018 µM	0.345 µM	0.0173 µM	0.0167 µM	0.0271 µM	8.52 µM	1070 nM · h/mpk								
CNC(=O)C(COC)Cn1cnc2ccc(-c3cnc(OC)c(NS(=O)(=O)c4ccc(F)cc4Cl)c3)cc2c1=O (single isomer, unassigned)	0.0215 µM	0.318 µM			0.0928 µM										
CNC(=O)C(C)Cn1cnc2ccc(-c3cnc(OC)c(NS(=O)(=O)c4ccc(F)cc4Cl)c3)cc2c1=O (single isomer, unassigned) [WX031]		0.271 µM	0.0139 µM	0.0138 µM			4228 nM · h/mpk			0.25 L/h/kg	0.179 L/kg	59.4%		82.3%	86.0%
CNC(=O)C(C)Cn1cnc2ccc(-c3cnc(OC)c(NS(=O)(=O)c4ccc(F)cc4F)c3)cc2c1=O (single isomer, unassigned) [WX089]						20.3 µM	3477 nM · h/mpk							77.6%	
CNC(=O)C(C)Cn1cnc2ccc(-c3cnc(OC)c(NS(=O)(=O)c4c(C)noc4C)c3)cc2c1=O (single isomer, unassigned) [WX093]	0.00427 µM	0.624 µM	0.0193 µM	0.0429 µM	0.226 µM										
CNC(=O)C(C)Cn1cnc2ccc(-c3cnc(OC)c(NS(=O)(=O)c4ccccc4C(F)(F)F)c3)cc2c1=O (single isomer, unassigned) [WX099]	0.00167 µM	0.323 µM	0.0124 µM	0.0193 µM	0.132 µM	6.67 µM	791 nM · h/mpk			0.792 L/h/kg	0.280 L/kg	36.4%	18.3 min		
CNC(=O)C(C)Cn1cnc2ccc(-c3cnc(OC)c(NS(=O)(=O)c4cccc(Cl)c4C)c3)cc2c1=O (single isomer, unassigned) [WX139]	0.0033 µM	0.584 µM			0.0107 µM	10.1 µM	1118 nM · h/mpk								
CNC(=O)C(C)Cn1cnc2ccc(-c3cnc(OC)c(NS(=O)(=O)c4cc(C)cc(C)c4)c3)cc2c1=O (single isomer, unassigned) [WX145]	0.00868 µM	1.06 µM	0.075 µM	0.14 µM	0.00906 µM										
CNC(=O)C(C)Cn1cnc2ccc(-c3cnc(OC)c(NS(=O)(=O)c4ccc(C(F)(F)F)cc4)c3)cc2c1=O (single isomer, unassigned) [WX149]	0.00478 µM	0.559 µM	0.0198 µM	0.0641 µM	0.0267 µM										
CCOc1ncc(-c2ccc3ncn(CC(C)C(=O)NC)c(=O)c3c2)cc1NS(=O)(=O)c1ccc(F)cc1Cl (single isomer, unassigned) [WX158]	0.0237 µM	1.12 µM			0.154 µM										
CNC(=O)C(C)Cn1cnc2ccc(-c3cnc(OC)c(NS(=O)(=O)c4cc(C)ccc4C)c3)cc2c1=O (single isomer, unassigned) [WX170]	0.00314 µM	0.668 µM	0.0296 µM	0.0661 µM	0.0012 µM	10.9 µM	885.0 nM · h/mpk								
CNC(=O)C(C)Cn1cnc2ccc(-c3cnc(OC)c(NS(=O)(=O)c4ccc(C(F)(F)F)cc4Cl)c3)cc2c1=O (single isomer, unassigned) [WX212]	0.00176 µM	0.253 µM	0.00922 µM	0.0277 µM	0.028 µM										
CNC(=O)C(C)Cn1cnc2ccc(-c3cnc(OC)c(NS(=O)(=O)c4cccc(F)c4C)c3)cc2c1=O (single isomer, unassigned) [WX216]	0.00258 µM	0.44 µM	0.0386 µM	0.0346 µM	0.0485 µM										
CNC(=O)C(C)Cn1cnc2ccc(-c3cnc(OC)c(NS(=O)(=O)c4cc(F)ccc4F)c3)cc2c1=O (single isomer, unassigned) [WX224]	0.00308 µM	0.326 µM	0.022 µM	0.0237 µM	0.0435 µM										
CNC(=O)C(C)Cn1cnc2ccc(-c3cnc(OC)c(NS(=O)(=O)c4cc(F)ccc4C)c3)cc2c1=O (single isomer, unassigned) [WX226]	0.00252 µM	0.283 µM			0.0443 µM										
CNC(=O)C(C)Cn1cnc2ccc(-c3cnc(OC)c(NS(=O)(=O)c4cc(Cl)cc(Cl)c4)c3)cc2c1=O (single isomer, unassigned) [WX228]	0.0027 µM	0.393 µM	0.0705 µM	0.0582 µM	0.00614 µM										
CNC(=O)C(C)Cn1cnc2ccc(-c3cnc(OC)c(NS(=O)(=O)c4ccc(F)c(C(F)(F)F)c4)c3)cc2c1=O (single isomer, unassigned) [WX229]	0.0115 µM	1.17 µM	0.0576 µM	0.142 µM	0.11 µM										

Continued by falling IC50 (PI3Kβ), values first:

IC50 (PI3Kα)	IC50 (PI3Kβ)	IC50 (PI3Kδ)	IC50 (PI3Kγ)	IC50 [1]	Cmax [2]	Oral DNAUC (area under the dose normalization curve) [2]	Cmax ([2]; 10 mg/kg)	Oral DNAUC (area under the dose normalization curve) ([2]; 10 mg/kg)	Cl (clearance rate) ([2]; intravenous 1 mg/kg)	Vd (apparent volume of distribution) ([2]; intravenous 1 mg/kg)	F % (oral bioavailability) [2]	Intravenous injection T1/2 ([2]; intravenous 1 mg/kg)	SMILES	TGI % [3]	TGI % [4]
0.0016 µM	0.222 µM	0.0087 µM	0.0158 µM	0.0191 µM	19.9 µM	1947 nM · h/mpk							CNC(=O)C(C)Cn1cnc2ccc(-c3cnc(OC)c(NS(=O)(=O)c4ccccc4Cl)c3)cc2c1=O (single isomer, unassigned) [WX147]		
0.00042 µM	0.161 µM	0.00127 µM	0.00827 µM	0.152 µM									Cc1nc(C)c(S(=O)(=O)Nc2cc(-c3ccc4ncn([C@H]5C[C@H](C(=O)N6CCCC6)C5)c(=O)c4c3)cnc2C)s1		
0.00121 µM	0.146 µM	0.0104 µM	0.0174 µM	0.0157 µM	26.3 µM	4703 nM · h/mpk							CNC(=O)C(C)Cn1cnc2ccc(-c3cnc(OC)c(NS(=O)(=O)c4cc(C)ccc4F)c3)cc2c1=O (single isomer, unassigned) [WX173]		
0.00069 µM	0.124 µM	0.00153 µM	0.0099 µM	0.18 µM									Cc1nc(C)c(S(=O)(=O)Nc2cc(-c3ccc4ncn([C@H]5C[C@H](C(=O)NC(C)C)C5)c(=O)c4c3)cnc2C)s1		
0.00267 µM	0.118 µM	0.00737 µM	0.0161 µM	0.00785 µM			14.1 µM	1540 nM · h/mpk					CNC(=O)C(Cn1cnc2ccc(-c3cnc(OC)c(NS(=O)(=O)c4ccc(F)cc4Cl)c3)cc2c1=O)OC (single isomer, unassigned) [WX047]		
0.00275 µM	0.116 µM	0.00922 µM	0.00818 µM	0.0239 µM			3.8 µM	1386 nM · h/mpk					COc1ncc(-c2ccc3ncn(CC(C)C(N)=O)c(=O)c3c2)cc1NS(=O)(=O)c1ccc(F)cc1Cl (single isomer, unassigned) [WX019]		
0.00199 µM	0.0967 µM	0.00275 µM	0.00933 µM	0.0266 µM			14.9 µM	1504 nM · h/mpk					CNC(=O)C(Cn1cnc2ccc(-c3cnc(OC)c(NS(=O)(=O)c4ccc(F)cc4Cl)c3)cc2c1=O)OC (single isomer, unassigned) [WX046]		
0.00234 µM	0.0897 µM	0.00995 µM	0.0115 µM	0.0593 µM									CNC(=O)C(C)Cn1cnc2ccc(-c3cnc(OC)c(NS(=O)(=O)c4ccc(F)cc4Cl)c3)cc2c1=O (single isomer, unassigned) [WX030]		
0.00244 µM	0.0421 µM	0.00144 µM	0.00793 µM	0.0244 µM	1.74 µM	3687 nM · h/mpk							CNC(=O)[C@H]1C[C@@H](n2cnc3ccc(-c4cnc(OC)c(NS(=O)(=O)c5ccc(F)cc5Cl)c4)cc3c2=O)C1		
0.00104 µM	0.0364 µM	0.00094 µM	0.00306 µM	0.0108 µM	5.12 µM	18467 nM · h/mpk							CNC(=O)[C@H]1C[C@H](n2cnc3ccc(-c4cnc(OC)c(NS(=O)(=O)c5ccc(F)cc5Cl)c4)cc3c2=O)C1		
